The values below come from ChEMBL document CHEMBL3763133, “4-Arylbenzenesulfonamides as Human Carbonic Anhydrase Inhibitors (hCAIs): Synthesis by Pd Nanocatalyst-Mediated Suzuki-Miyaura Reaction, Enzyme Inhibition, and X-ray Crystallographic Studies” (J Med Chem, 2016).

This test concerns the target Carbonic anhydrase 9 (Homo sapiens, UniProt Q16790). Nature of the test: Inhibition of human carbonic anhydrase 9 incubated for 15 mins prior to testing by CO2 hydration-based stopped flow assay.

`CC(C)c1ccccc1-c1ccc(S(N)(=O)=O)cc1`: affinity was put at a Ki of 0.208 µM. That is a sub-micromolar value.
As for `Cc1ccccc1-c1ccc(S(N)(=O)=O)cc1`, the inhibition constant Ki (usually a dissociation constant, usually derived from enzyme kinetics or from competition with a known ligand) worked out at 0.0201 µM.
